Data as given in patent EP4837910A1, “ISOXAZOLINE COMPOUND AND PREPARATION METHOD THEREFOR, HERBICIDAL COMPOSITION, AND USE” (dated 2026).

How the values were obtained:
[1] = system: Monocotyledonous and dicotyledonous weed; test: Pre-emergence test on weeds (greenhouse, sprayed immediately after sowing); details: fresh weight control rate; for activity level of plant damage (growth control rate), Descurainia sophia / activity level of plant damage (growth control rate), Lolium multiflorum / activity level of plant damage (growth control rate), Digitaria sanguinalis / activity level of plant damage (growth control rate), Setaria viridis: Dosage 240 g a.i./ha, after 4 weeks in greenhouse; for activity level (growth control rate), Digitaria sanguinalis / activity level (growth control rate), Setaria viridis: sprayed immediately after sowing, 240 g a.i./ha, observed after 4 weeks in greenhouse
Zea mays = test: Pre-emergence test, crop damage (greenhouse, sprayed immediately after sowing); details: Dosage 240 g a.i./ha, after 4 weeks in greenhouse, fresh weight control rate
From the text: Monocotyledonous and dicotyledonous weed seeds as well as major crop seeds were placed in plastic pots filled with soil and then covered with 0.5-2 cm of soil. The test compounds of the present invention were individually dissolved with acetone, then added with Tween® 80, diluted with certain amount of water to obtain solutions of certain concentrations, and sprayed immediately after sowing. After drug application, the experimental results on weeds were observed after 4 weeks of cultivation in a greenhouse. Table 3 Results of pre-emergence test on weeds

[2] = system: Monocotyledonous and dicotyledonous weed; test: Post-emergence test on weeds (greenhouse, spray tower); details: after 3 weeks of cultivation in a greenhouse, fresh weight control rate

SMILES | activity level of plant damage (growth control rate), Descurainia sophia [1] | activity level of plant damage (growth control rate), Lolium multiflorum [1] | activity level of plant damage (growth control rate), Zea mays (Zea mays) | activity level of plant damage (growth control rate), Digitaria sanguinalis [1] | activity level of plant damage (growth control rate), Setaria viridis [1] | further results
C=C[C@]1(C(=O)N[C@@H](C)C(=O)N(OC)C(=O)OC)CC(c2cc(F)cc(F)c2)=NO1 | 9 | 9 | 0 |  |  | 
C=C[C@]1(C(=O)N[C@H](C)C(=O)NOC)CC(c2cc(F)cc(Cl)c2)=NO1 | 9 | 9 | 0 | 8 (Level 8: growth control rate greater than or equal to 90% and less than 100%) | 8 (Level 8: growth control rate greater than or equal to 90% and less than 100%) | 
C=C[C@]1(C(=O)NC(CC)C(=O)N(C)OC)CC(c2cc(F)cc(F)c2)=NO1 (some centres unmarked) |  | 8 (Level 8: growth control rate greater than or equal to 90% and less than 100%) | 2 (Level 2: growth control rate greater than or equal to 10% and less than 20%) | 5 (Level 5: growth control rate greater than or equal to 50% and less than 70%) | 8 (Level 8: growth control rate greater than or equal to 90% and less than 100%) | 
C=C[C@]1(C(=O)N[C@H](C(=O)N(C)OC)C(C)CC)CC(c2cc(F)cc(F)c2)=NO1 (some centres unmarked) |  | 6 (Level 6: growth control rate greater than or equal to 70% and less than 80%) | 0 | 5 (Level 5: growth control rate greater than or equal to 50% and less than 70%) | 7 (Level 7: growth control rate greater than or equal to 80% and less than 90%) | 
C=CC1(C(=O)N[C@@H](C)C(=O)N(C)OC)CC(c2cc(F)cc(S(C)(=O)=O)c2)=NO1 (some centres unmarked) | 6 (Level 6: growth control rate greater than or equal to 70% and less than 80%) |  | 0 |  | 5 (Level 5: growth control rate greater than or equal to 50% and less than 70%) | 
C=C(C)[C@]1(C(=O)N[C@@H](C)C(=O)N(C)OC)CC(c2cc(Cl)cc(Cl)c2)=NO1 |  | 9 | 1 (Level 1: growth control rate less than 10%) | 9 | 9 | 
C=CC1(C(=O)N[C@@H](C)C(=O)NOC(C)C)CC(c2cc(F)cc(F)c2)=NO1 (some centres unmarked) |  | 9 | 0 | 6 (Level 6: growth control rate greater than or equal to 70% and less than 80%) | 8 (Level 8: growth control rate greater than or equal to 90% and less than 100%) | 
C=C[C@@]1(C(=O)N[C@@H](CCCCN)C(=O)N(C)OC)CC(c2cc(F)cc(F)c2)=NO1 |  |  | 1 (Level 1: growth control rate less than 10%) | 5 (Level 5: growth control rate greater than or equal to 50% and less than 70%) |  | 
C=C[C@]1(C(=O)N[C@@H](CC2CC2)C(=O)N(C)OC)CC(c2cc(F)cc(F)c2)=NO1 |  |  | 0 |  | 9 | 
C=C[C@@]1(C(=O)N[C@H](C)C(=O)NOC)CC(c2cc(F)cc(C(F)(F)F)c2)=NO1 | 9 | 5 (Level 5: growth control rate greater than or equal to 50% and less than 70%) | 0 |  |  | 
CCN(OC)C(=O)[C@H](C)NC(=O)[C@@]1(CC)CC(c2cc(F)cc(F)c2)=NO1 |  | 7 (Level 7: growth control rate greater than or equal to 80% and less than 90%) | 2 (Level 2: growth control rate greater than or equal to 10% and less than 20%) | 8 (Level 8: growth control rate greater than or equal to 90% and less than 100%) | 9 | 
C=C[C@]1(C(=O)N[C@@H](Cc2ccc([N+](=O)[O-])cc2)C(=O)N(C)OC)CC(c2cc(F)cc(F)c2)=NO1 |  | 5 (Level 5: growth control rate greater than or equal to 50% and less than 70%) | 0 |  |  | 
C=C[C@]1(C(=O)N[C@@H](C)C(=O)N(C)OC)CC(c2cc(F)c(F)c(F)c2)=NO1 |  | 9 | 2 (Level 2: growth control rate greater than or equal to 10% and less than 20%) |  |  | 
CONC(=O)[C@H](C)NC(=O)[C@@]1(CF)CC(c2cc(F)cc(F)c2)=NO1 | 6 (Level 6: growth control rate greater than or equal to 70% and less than 80%) | 6 (Level 6: growth control rate greater than or equal to 70% and less than 80%) | 2 (Level 2: growth control rate greater than or equal to 10% and less than 20%) |  |  | 
C=C[C@@]1(C(=O)N[C@@H](C)C(=O)NOC)CC(c2cc(F)cc(OC(F)(F)F)c2)=NO1 | 5 (Level 5: growth control rate greater than or equal to 50% and less than 70%) | 7 (Level 7: growth control rate greater than or equal to 80% and less than 90%) | 0 |  |  | 
C=C(C)[C@]1(C(=O)N[C@@H](CC)C(=O)NOC)CC(c2cc(Cl)cc(Cl)c2)=NO1 |  |  |  |  |  | Digitaria sanguinalis, activity level of plant damage (growth control rate) ([2]; Dosage 60 g a.i./ha): 8 (Level 8: growth control rate greater than or equal to 90% and less than 100%); Echinochloa crus-galli, activity level of plant damage (growth control rate) ([2]; Dosage 60 g a.i./ha): 6 (Level 6: growth control rate greater than or equal to 70% and less than 80%); activity level (growth control rate), Digitaria sanguinalis [1]: 9; activity level (growth control rate), Setaria viridis [1]: 9
C=C[C@]1(C(=O)N[C@@H](C)C(=O)N(CC)OC)CC(c2cc(F)cc(F)c2)=NO1 | 7 (Level 7: growth control rate greater than or equal to 80% and less than 90%) | 9 |  | 9 | 9 | Avena fatua, activity level of plant damage (growth control rate) ([2]; Dosage 240 g a.i./ha): 9; Digitaria sanguinalis, activity level of plant damage (growth control rate) ([2]; Dosage 240 g a.i./ha): 5 (Level 5: growth control rate greater than or equal to 50% and less than 70%)
C=C(C)[C@]1(C(=O)NCC(=O)NOCC)CC(c2cc(F)cc(Cl)c2)=NO1 |  |  |  |  |  | Amaranthus retroflexus, activity level of plant damage (growth control rate) ([2]; Dosage 60 g a.i./ha): 8 (Level 8: growth control rate greater than or equal to 90% and less than 100%); Digitaria sanguinalis, activity level of plant damage (growth control rate) ([2]; Dosage 60 g a.i./ha): 8 (Level 8: growth control rate greater than or equal to 90% and less than 100%); Echinochloa crus-galli, activity level of plant damage (growth control rate) ([2]; Dosage 60 g a.i./ha): 8 (Level 8: growth control rate greater than or equal to 90% and less than 100%); activity level (growth control rate), Digitaria sanguinalis [1]: 9; activity level (growth control rate), Setaria viridis [1]: 9
C=C(C)[C@]1(C(=O)N[C@@H](C)C(=O)N2CCCCO2)CC(c2cc(F)cc(F)c2)=NO1 | 9 | 9 |  | 9 | 9 | Digitaria sanguinalis, activity level of plant damage (growth control rate) ([2]; Dosage 60 g a.i./ha): 8 (Level 8: growth control rate greater than or equal to 90% and less than 100%); Echinochloa crus-galli, activity level of plant damage (growth control rate) ([2]; Dosage 60 g a.i./ha): 8 (Level 8: growth control rate greater than or equal to 90% and less than 100%)
C=C(C)[C@]1(C(=O)N[C@@H](C)C(=O)NOCCCc2ccccc2)CC(c2cc(F)cc(F)c2)=NO1 |  |  |  |  |  | Amaranthus retroflexus, activity level of plant damage (growth control rate) ([2]; Dosage 60 g a.i./ha): 6 (Level 6: growth control rate greater than or equal to 70% and less than 80%); Digitaria sanguinalis, activity level of plant damage (growth control rate) ([2]; Dosage 60 g a.i./ha): 8 (Level 8: growth control rate greater than or equal to 90% and less than 100%); Echinochloa crus-galli, activity level of plant damage (growth control rate) ([2]; Dosage 60 g a.i./ha): 8 (Level 8: growth control rate greater than or equal to 90% and less than 100%); activity level (growth control rate), Digitaria sanguinalis [1]: 8 (Level 8: growth control rate greater than or equal to 90% and less than 100%); activity level (growth control rate), Setaria viridis [1]: 8 (Level 8: growth control rate greater than or equal to 90% and less than 100%)
